# Reference: ChEMBL document CHEMBL3879899, “Gastrin releasing peptide compounds” (2011)
# Protein sequences, listed by entry. Tags and fused reporters are not part of them. Lines headed by an entry give the natural chain unless they say otherwise; changes in a name come on top.
# UniProt P30550: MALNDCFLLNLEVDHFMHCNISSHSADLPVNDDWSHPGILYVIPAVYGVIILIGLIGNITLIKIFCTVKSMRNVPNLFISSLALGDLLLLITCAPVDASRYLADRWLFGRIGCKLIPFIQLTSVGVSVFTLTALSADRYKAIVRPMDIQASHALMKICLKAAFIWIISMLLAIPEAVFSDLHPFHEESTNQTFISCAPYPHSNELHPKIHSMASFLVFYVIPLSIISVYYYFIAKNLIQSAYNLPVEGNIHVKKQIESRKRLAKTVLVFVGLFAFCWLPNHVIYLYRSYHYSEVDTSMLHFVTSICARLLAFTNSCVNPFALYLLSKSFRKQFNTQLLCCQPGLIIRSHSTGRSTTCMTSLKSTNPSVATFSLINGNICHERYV
# Target: Gastrin-releasing peptide receptor (Homo sapiens, UniProt P30550)
# Experiment: Displacement of [125I]-BBN from GRPR in human PC3 cells after 1 hr by compuGamma counting or microplate scintillation counting method
# Format: cell-based, PC-3
# Details: not given
row,Structure (SMILES),IC50 [nM]
1,CC(C)C[C@H](NC(=O)[C@H](Cc1ccccc1)NC(=O)[C@H](Cc1c[nH]cn1)NC(=O)CNC(=O)[C@@H](NC(=O)[C@H](C)NC(=O)[C@H](Cc1c[nH]c2ccccc12)NC(=O)[C@H](CCC(N)=O)NC(=O)c1ccc(NC(=O)CNC(=O)CN2CCN(CC(=O)O)CCN(CC(=O)O)CCN(CC(=O)O)CC2)cc1)C(C)C)C(N)=O,2.5
2,CSCC[C@H](NC(=O)[C@H](CC(C)C)NC(=O)[C@H](Cc1cnc[nH]1)NC(=O)CNC(=O)[C@@H](NC(=O)[C@H](C)NC(=O)[C@H](Cc1c[nH]c2ccccc12)NC(=O)[C@H](CCC(N)=O)NC(=O)[C@H](CC(=O)O)NC(=O)CN1CCN(CCNC(=O)CNC(=O)[C@H](CSCNC(C)=O)NC(=O)[C@H](CO)NC(=O)CN(C)C)CC1)C(C)C)C(N)=O,> 50
3,CSCC[C@H](NC(=O)[C@H](CC(C)C)NC(=O)[C@H](Cc1cnc[nH]1)NC(=O)CNC(=O)[C@@H](NC(=O)[C@H](C)NC(=O)[C@H](Cc1c[nH]c2ccccc12)NC(=O)[C@H](CCC(N)=O)NC(=O)[C@H](CC(=O)O)NC(=O)COCCOCCNC(=O)CNC(=O)[C@H](CSCNC(C)=O)NC(=O)[C@H](CO)NC(=O)CN(C)C)C(C)C)C(N)=O,> 50
4,CSCC[C@H](NC(=O)[C@H](CC(C)C)NC(=O)[C@H](Cc1cnc[nH]1)NC(=O)CNC(=O)[C@@H](NC(=O)[C@H](C)NC(=O)[C@H](Cc1c[nH]c2ccccc12)NC(=O)[C@H](CCC(N)=O)NC(=O)[C@H](CCCNC(=N)N)NC(=O)COCCOCCNC(=O)CNC(=O)[C@H](CSCNC(C)=O)NC(=O)[C@H](CO)NC(=O)CN(C)C)C(C)C)C(N)=O,6
5,CSCC[C@H](NC(=O)[C@H](CC(C)C)NC(=O)[C@H](Cc1cnc[nH]1)NC(=O)CNC(=O)[C@@H](NC(=O)[C@H](C)NC(=O)[C@H](Cc1c[nH]c2ccccc12)NC(=O)[C@H](CCC(N)=O)NC(=O)[C@H](CO)NC(=O)CN1CCN(CCNC(=O)CNC(=O)[C@H](CSCNC(C)=O)NC(=O)[C@H](CO)NC(=O)CN(C)C)CC1)C(C)C)C(N)=O,25
6,CSCC[C@H](NC(=O)[C@H](CC(C)C)NC(=O)[C@H](Cc1cnc[nH]1)NC(=O)CNC(=O)[C@@H](NC(=O)[C@H](C)NC(=O)[C@H](Cc1c[nH]c2ccccc12)NC(=O)[C@H](CCC(N)=O)NC(=O)[C@H](CO)NC(=O)COCCOCCNC(=O)CNC(=O)[C@H](CSCNC(C)=O)NC(=O)[C@H](CO)NC(=O)CN(C)C)C(C)C)C(N)=O,36
7,CSCC[C@H](NC(=O)[C@H](CC(C)C)NC(=O)[C@H](Cc1cnc[nH]1)NC(=O)CNC(=O)[C@@H](NC(=O)[C@H](C)NC(=O)[C@H](Cc1c[nH]c2ccccc12)NC(=O)[C@H](CCC(N)=O)NC(=O)[C@@H](C)NC(=O)COCCOCCNC(=O)CNC(=O)[C@H](CSCNC(C)=O)NC(=O)[C@H](CO)NC(=O)CN(C)C)C(C)C)C(N)=O,11
8,CC(C)C[C@H](NC(=O)[C@H](CC(C)C)NC(=O)[C@H](Cc1cnc[nH]1)NC(=O)CNC(=O)[C@@H](NC(=O)[C@H](C)NC(=O)[C@H](Cc1c[nH]c2ccccc12)NC(=O)[C@H](CCC(N)=O)NC(=O)[C@@H](Cc1ccccc1)NC(=O)c1ccc(NC(=O)CNC(=O)CN2CCN(CC(=O)O)CCN(CC(=O)O)CCN(CC(=O)O)CC2)cc1)C(C)C)C(N)=O,340
9,CSCC[C@H](NC(=O)[C@H](CC(C)C)NC(=O)[C@H](Cc1cnc[nH]1)NC(=O)CNC(=O)[C@@H](NC(=O)[C@H](C)NC(=O)[C@H](Cc1c[nH]c2ccccc12)NC(=O)[C@H](CCC(N)=O)NC(=O)CNC(=O)[C@H](CCCNC(=N)N)NC(=O)COCCOCCNC(=O)CNC(=O)[C@H](CSCNC(C)=O)NC(=O)[C@H](CO)NC(=O)CN(C)C)C(C)C)C(N)=O,36 to 50
10,CSCC[C@H](NC(=O)[C@H](CC(C)C)NC(=O)[C@H](Cc1cnc[nH]1)NC(=O)CNC(=O)[C@@H](NC(=O)[C@H](C)NC(=O)[C@H](Cc1c[nH]c2ccccc12)NC(=O)[C@H](CCC(N)=O)NC(=O)CNC(=O)[C@H](CC(=O)O)NC(=O)COCCOCCNC(=O)CNC(=O)[C@H](CSCNC(C)=O)NC(=O)[C@H](CO)NC(=O)CN(C)C)C(C)C)C(N)=O,37 to 43
11,CSCC[C@H](NC(=O)[C@H](CC(C)C)NC(=O)[C@H](Cc1cnc[nH]1)NC(=O)CNC(=O)[C@@H](NC(=O)[C@H](C)NC(=O)[C@H](Cc1c[nH]c2ccccc12)NC(=O)[C@H](CCC(N)=O)NC(=O)CNC(=O)[C@H](CO)NC(=O)COCCOCCNC(=O)CNC(=O)[C@H](CSCNC(C)=O)NC(=O)[C@H](CO)NC(=O)CN(C)C)C(C)C)C(N)=O,4 to 46
12,CSCC[C@H](NC(=O)[C@H](CC(C)C)NC(=O)[C@H](Cc1cnc[nH]1)NC(=O)CNC(=O)[C@@H](NC(=O)[C@H](C)NC(=O)[C@H](Cc1c[nH]c2ccccc12)NC(=O)[C@H](CCC(N)=O)NC(=O)[C@H](CCCNC(=N)N)NC(=O)CN1CCN(CCNC(=O)CNC(=O)[C@H](CSCNC(C)=O)NC(=O)[C@H](CO)NC(=O)CN(C)C)CC1)C(C)C)C(N)=O,36
13,CSCC[C@H](NC(=O)[C@H](CC(C)C)NC(=O)[C@H](Cc1cnc[nH]1)NC(=O)CNC(=O)[C@@H](NC(=O)[C@H](C)NC(=O)[C@H](Cc1c[nH]c2ccccc12)NC(=O)[C@H](CCC(N)=O)NC(=O)[C@H](CCC(=O)O)NC(=O)COCCOCCNC(=O)CNC(=O)[C@H](CSCNC(C)=O)NC(=O)[C@H](CO)NC(=O)CN(C)C)C(C)C)C(N)=O,> 50

# Same assay, conditions: pc-3
row,Structure (SMILES),IC50 [nM]
1,CCCC[C@H](NC(=O)[C@H](Cc1ccccc1)NC(=O)[C@H](Cc1c[nH]cn1)NC(=O)CCNC(=O)[C@@H](NC(=O)[C@H](C)NC(=O)[C@H](Cc1c[nH]c2ccccc12)NC(=O)[C@H](CCC(N)=O)NC(=O)[C@H](Cc1ccccc1)NC(=O)c1ccc(NC(=O)CNC(=O)CN2CCN(CC(=O)O)CCN(CC(=O)O)CCN(CC(=O)O)CC2)cc1)C(C)C)C(N)=O,52
2,CCCC[C@H](NC(=O)[C@H](Cc1ccccc1)NC(=O)[C@H](Cc1c[nH]cn1)NC(=O)CCNC(=O)[C@@H](NC(=O)[C@H](C)NC(=O)[C@H](Cc1c[nH]c2ccccc12)NC(=O)[C@H](CCC(N)=O)NC(=O)[C@@H](Cc1ccc(O)cc1)NC(=O)c1ccc(NC(=O)CNC(=O)CN2CCN(CC(=O)O)CCN(CC(=O)O)CCN(CC(=O)O)CC2)cc1)C(C)C)C(N)=O,46
3,CCCCCNC(=O)[C@H](CC(C)C)NC(=O)[C@H](Cc1cnc[nH]1)NC(=O)CNC(=O)[C@@H](NC(=O)[C@H](C)NC(=O)[C@H](Cc1c[nH]c2ccccc12)NC(=O)[C@H](CCC(N)=O)NC(=O)[C@@H](Cc1ccccc1)NC(=O)c1ccc(NC(=O)CNC(=O)CN2CCN(CC(=O)O)CCN(CC(=O)O)CCN(CC(=O)O)CC2)cc1)C(C)C,75
4,CSCC[C@H](NC(=O)[C@H](CC(C)C)NC(=O)[C@H](Cc1cnc[nH]1)NC(=O)[C@@H](C)NC(=O)[C@@H](NC(=O)[C@H](C)NC(=O)[C@H](Cc1c[nH]c2ccccc12)NC(=O)[C@H](CCC(N)=O)NC(=O)c1ccc(NC(=O)CNC(=O)CN2CCN(CC(=O)O)CCN(CC(=O)O)CCN(CC(=O)O)CC2)cc1)C(C)C)C(N)=O,13
5,CCCC[C@H](NC(=O)[C@H](CC(C)C)NC(=O)[C@H](Cc1c[nH]cn1)NC(=O)CNC(=O)[C@@H](NC(=O)[C@H](C)NC(=O)[C@H](Cc1c[nH]c2ccccc12)NC(=O)[C@H](CCC(N)=O)NC(=O)CCCCCCCNC(=O)CN1CCN(CC(=O)O)CCN(CC(=O)O)CCN(CC(=O)O)CC1)C(C)C)C(N)=O,11

# Target: T1, Neuromedin-B receptor (Rattus norvegicus, UniProt P24053)
# T1 sequence (P24053 whole entry): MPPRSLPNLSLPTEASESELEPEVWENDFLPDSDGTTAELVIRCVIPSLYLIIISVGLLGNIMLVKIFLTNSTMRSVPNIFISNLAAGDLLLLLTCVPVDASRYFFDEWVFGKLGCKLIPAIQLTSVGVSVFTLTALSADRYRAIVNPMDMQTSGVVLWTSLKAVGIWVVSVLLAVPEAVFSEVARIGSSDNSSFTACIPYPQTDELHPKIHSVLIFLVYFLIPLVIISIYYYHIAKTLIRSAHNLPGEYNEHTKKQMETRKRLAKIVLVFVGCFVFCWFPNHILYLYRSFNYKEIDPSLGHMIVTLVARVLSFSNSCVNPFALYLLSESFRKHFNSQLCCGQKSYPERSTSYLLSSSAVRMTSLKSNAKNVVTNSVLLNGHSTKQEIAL
# Experiment: Displacement of [125I]-NMB from NMB receptor in rat C6 cells
# Format: cell-based
# Details: not given
row,Structure (SMILES),IC50 [nM]
1,CSCC[C@H](NC(=O)[C@H](CC(C)C)NC(=O)[C@H](Cc1cnc[nH]1)NC(=O)CNC(=O)[C@@H](NC(=O)[C@H](C)NC(=O)[C@H](Cc1c[nH]c2ccccc12)NC(=O)[C@H](CCC(N)=O)NC(=O)[C@H](CO)NC(=O)CN1CCN(CCNC(=O)CNC(=O)[C@H](CSCNC(C)=O)NC(=O)[C@H](CO)NC(=O)CN(C)C)CC1)C(C)C)C(N)=O,13

# Same assay, conditions: c6
row,Structure (SMILES),IC50 [nM]
1,CCCC[C@H](NC(=O)[C@H](CC(C)C)NC(=O)[C@H](Cc1c[nH]cn1)NC(=O)CNC(=O)[C@@H](NC(=O)[C@H](C)NC(=O)[C@H](Cc1c[nH]c2ccccc12)NC(=O)[C@H](CCC(N)=O)NC(=O)CCCCCCCNC(=O)CN1CCN(CC(=O)O)CCN(CC(=O)O)CCN(CC(=O)O)CC1)C(C)C)C(N)=O,14
